Earlier results as cited in patent US20160151380A1, “THERAPIES FOR DISEASES CAUSED BY ARTHROPOD-BORNE PARASITES” (THE REGENTS OF THE UNIVERSITY OF CALIFORNIA, priority 2013, published 2016).

The chains behind the UniProt entries cited, without tags or fusion partners.
UniProt Q02156, whole entry: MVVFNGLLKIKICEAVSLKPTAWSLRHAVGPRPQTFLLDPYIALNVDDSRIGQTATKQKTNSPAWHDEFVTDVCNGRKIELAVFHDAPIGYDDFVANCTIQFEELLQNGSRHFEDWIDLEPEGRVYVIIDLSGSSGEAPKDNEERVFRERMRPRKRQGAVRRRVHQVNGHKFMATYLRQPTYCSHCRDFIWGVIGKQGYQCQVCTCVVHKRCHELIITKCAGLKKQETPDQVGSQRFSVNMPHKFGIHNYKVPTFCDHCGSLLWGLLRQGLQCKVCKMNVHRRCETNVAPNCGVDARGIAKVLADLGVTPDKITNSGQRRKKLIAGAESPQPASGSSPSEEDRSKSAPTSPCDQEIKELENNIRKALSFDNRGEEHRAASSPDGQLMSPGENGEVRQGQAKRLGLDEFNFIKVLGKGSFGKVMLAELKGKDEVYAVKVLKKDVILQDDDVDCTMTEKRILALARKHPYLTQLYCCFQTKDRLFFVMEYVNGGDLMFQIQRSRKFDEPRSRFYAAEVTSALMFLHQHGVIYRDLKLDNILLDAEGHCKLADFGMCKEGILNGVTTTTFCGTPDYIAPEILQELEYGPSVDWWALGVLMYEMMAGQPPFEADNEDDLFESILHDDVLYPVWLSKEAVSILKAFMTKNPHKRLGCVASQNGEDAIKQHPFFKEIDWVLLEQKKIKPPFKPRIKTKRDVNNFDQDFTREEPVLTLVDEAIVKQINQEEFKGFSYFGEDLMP
UniProt Q16539, whole entry: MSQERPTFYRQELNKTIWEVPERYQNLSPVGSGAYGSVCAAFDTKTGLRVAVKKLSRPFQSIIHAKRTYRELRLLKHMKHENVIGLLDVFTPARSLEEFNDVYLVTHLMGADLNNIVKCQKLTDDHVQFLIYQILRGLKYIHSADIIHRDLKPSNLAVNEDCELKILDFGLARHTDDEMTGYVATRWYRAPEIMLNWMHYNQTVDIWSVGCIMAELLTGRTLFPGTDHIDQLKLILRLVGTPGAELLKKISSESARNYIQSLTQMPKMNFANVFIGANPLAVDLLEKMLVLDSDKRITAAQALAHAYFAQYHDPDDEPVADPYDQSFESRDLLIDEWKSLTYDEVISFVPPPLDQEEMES

Tests used:
[1] = molecular target: PKCepsilon (Homo sapiens, UniProt Q02156); conditions: cited from earlier work
[2] = molecular target: MAPK14 p38 (Homo sapiens, UniProt Q16539); conditions: cited from earlier work

| SMILES | IC50 [1] [nM] | IC50 [2] [nM] |
| --- | --- | --- |
| CN1C[C@@H]2Cn3c(c(C4=C(c5cn(C)c6ccccc56)C(=O)NC4=O)c4ccccc43)C[C@H]2C1 | 48 |  |
| Cc1ccc(NC(=O)c2cccc(C(F)(F)F)c2)cc1C(=O)Nc1cnc(Nc2ccc(N3CCN(C)CC3)cc2)nc1 |  | 5 |
